According to US5559101A, “L-ribofuranosyl nucleosides” (priority 1994, dated 1996):

Columns and labels:
Assay type in all cases: cell-based
bone marrow = test: In vitro survival of bone marrow control cells (radiometric BACTEC)
From the text: (§1) CELL LINES: Eight different established human cell lines CALU (lung), COLO320 (colon), H578St (breast), HT-29 (colon), MCF-7 (breast), OM-1 (colon), SKLU (lung) and SKMES(lung), and two control cell lines (bone marrow and/or fibroblast cells) were utilized. All cell lines were obtained from the Tumor Cloning Laboratory, Institute for Drug Development, Cancer Therapy and Research Center, San Antonio, Tex. All cell lines grew as monolayers in the appropriate culture medium supplemented with heat-inactivated calf serum. All reagents were obtained from Grand Island Biological Co., Grand Island, N.Y.
(§2) The iv formulations of the compounds of the present invention were prepared with sterile buffered saline and stored at -70° C. until required for testing.
(§3) Following trypsinization, tumor cells were suspended in tissue culture medium and exposed to the antitumor agents continuously at three different concentrations: 10, 1 and 0.1 μg/ml.
(§4) RADIOMETRIC MEASUREMENT OF GROWTH INHIBITION: Growth inhibition was assessed with the BACTEC System 460 (Johnston Laboratories, Towson, Md.) after addition of the antitumor agent to the cell in the respective growth medium containing ^14 C-glucose at a final concentration of 2 μCi/ml.
(§5) Two mls of the tumor cell suspension containing radioactive glucose were seeded into sterile, disposable 15 ml vials by injection through self-sealing rubber-aluminum caps. […]

HT29 (colon) = test: Radiometric growth inhibition of tumor cells, HT29; details: human
From the text: as §1, §2, §3, §4, §5

MCF-7 (breast) = test: Radiometric growth inhibition of tumor cells, MCF-7; details: human, mcf-7 breast tumor cells
From the text: as §1, §2, §3, §4, §5

OM-1 (colon) = test: Radiometric growth inhibition of tumor cells, OM-1; details: human, om-1 colon tumor cells
From the text: as §1, §2, §3, §4, §5

SKLU (lung) = test: Radiometric growth inhibition of tumor cells, SKLU; details: human
From the text: as §1, §2, §3, §4, §5

In the case of 2'-Deoxy-β-L-5-fluorouridine, the “% SURVIVAL BONE MARROW” value (bone marrow) is reported as 104%, the “% SURVIVAL TUMOR” value (HT29 (colon)) is reported as 81.7% and the “% SURVIVAL TUMOR” value (MCF-7 (breast)) is reported as 66.9%. For the same substance, the “% SURVIVAL TUMOR” value (OM-1 (colon)) was 66.7% and the “% SURVIVAL TUMOR” value (SKLU (lung)) was 83.9%.
